Reference: patent US20080131534A1, “USE OF A PLANT EXTRACT OR PLANT JUICE” (Melbrosin International Produktions- und Vertriebs GesmbH & …, priority 2006, published 2008)
pEC50: −log10 of the molar value.

The chains behind the UniProt entries cited, without tags or fusion partners. Residues count along the entry.
UniProt P37231, 238-503 limits assumed: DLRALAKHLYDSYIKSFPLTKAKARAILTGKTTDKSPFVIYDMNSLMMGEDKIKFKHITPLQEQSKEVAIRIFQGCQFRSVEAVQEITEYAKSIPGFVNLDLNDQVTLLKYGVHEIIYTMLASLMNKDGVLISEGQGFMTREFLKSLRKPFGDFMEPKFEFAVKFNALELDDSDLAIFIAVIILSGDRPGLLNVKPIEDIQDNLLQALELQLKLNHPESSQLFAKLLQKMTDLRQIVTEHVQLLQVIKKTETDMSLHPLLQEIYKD

Target: T1, PPAR-gamma (Homo sapiens, UniProt P37231)
T1 construct: purchased Invitrogen
Experiment: Polar Screen PPAR Competitive Assay (fluorescence polarization ligand binding)
Settings: Table 3, active substances in Oregano

SMILES: COc1cc(-c2[o+]c3cc(O)cc(O)c3cc2O)ccc1O [PeonidinCl]
- pEC50: < 3.30
